According to patent publication EP0812190B1 (priority 1993, dated 1995):

What was measured:
[1] = water
in vitro = conditions: rat, cerebellar cell cultures
Cerebellar Cultures = conditions: rat
guinea-pig ileum = assay: tissue or blood; conditions: Cavia porcellus, read-out: Percent relaxation

## tartarate
[1]
  Solubility: 33 mg/mL

## C#CCN[C@@H]1CCc2ccccc21.CS(=O)(=O)O [[R](+)PAI Mesylate, R-(+)-N-propargyl-1-aminoindan mesylate]
In vitro
  CC50: 85 µM
Cerebellar Cultures
  Toxicity TD25: (Toxicity TD25 = 30 µM; TD50 = 85 µM; TD100 = 320 µM)
  Toxicity TD100: (Toxicity TD25 = 30 µM; TD50 = 85 µM; TD100 = 320 µM)

## C#CCN[C@@H]1CCc2ccccc21 [[R](+)PAI, R(+)-N-propargyl-1-aminoindan]
guinea-pig ileum
  inhibition at 30 µM: 31%

## C#CCN[C@H]1CCc2ccccc21 [[S](-)PAI, S-(-)-N-propargyl-1-aminoindan]
guinea-pig ileum
  inhibition at 4 µM: 15%
  inhibition at 10 µM: 30%
